# Assay results as given in patent US8357695B2, “Hydrates of 2-chloro-5-[3,6-dihydro-3-methyl-2,6-dioxo-4-(trifluoromethyl)-1-(2H)-pyrimidinyl]-4-fluoro-N-[[methyl(1-methylethyl)amino]sulfonyl]benzamide” (BASF SE, priority 2006, dated 2013).
# Entries after “also recorded” stand apart in the source; their conditions may differ.
# Test system: test plants
# Experiment: greenhouse experiments, overall comparison with form I
# Assay type: in vivo
# Conditions: greenhouse tests, overall conclusion in words
# Text: The test period extended over 2 to 4 weeks.
# The suspension concentrates had the following composition: […]
smiles,measurement,value
"CC(C)N(C)S(=O)(=O)NC(=O)c1cc(-n2c(=O)cc(C(F)(F)F)n(C)c2=O)c(F)cc1Cl (single isomer, unassigned) [Form III, 2-chloro-5-[3,6-dihydro-3-methyl-2,6-dioxo-4-(trifluoromethyl)-1-(2H)-pyrimidinyl]-4-fluoro-N-[[methyl(1-methylethyl)amino]sulfonyl]benzamide]",herbicidal activity in comparison with form I,superior to the former in terms of activity; also recorded: markedly improved herbicidal activity
